What was measured:
[1] = tested on: bovine thyroid membrane preparation; test: Membrane-based TSH specific activity assay (cAMP by RIA); type: biochemical; settings: tested against human TSH reference standard (WHO) in membrane-based specific activity assay
Procedure: Thyroid membrane preparation—The technique for preparing bovine thyroid membrane is based on a method described in Pekonen et al. (1980) J. Biol. Chem., 255:8121-8127. Calf thyroid glands are minced in 20 mM Tris HCl, 1 mM EDTA, pH 7.4. The minced tissue is homogenized in a single-speed VWR blender for 1 min and then filtered through cheesecloth. The homogenate is then centrifuged at 1000×g for 10 min at 4° C. and the pellet is discarded. The supernatant is removed and centrifuged at 10 000×g for 30 min at 4° C. The resulting pellet is resuspended in 20 mM Tris HCl, 1 mM EDTA, pH 7.4 and then centrifuged again at 10 000×g for 30 min. The pellet was resuspended and centrifuged at 18 000×g for 30 min. This may be repeated once more and, after quantification using BioRad Protein Assay according to the manufacturer's instructions, the pellet is resuspended to a final concentration of 1.25 mg/ml in 0.25 M sucrose, 20 mM Tris HCl, 1 mM EDTA, pH 7.4. The thyroid preparation is pulsed briefly in the blender, aliquotted, and then stored at less than −70° C.
Membrane-based TSH specific activity assay—Reference and test samples are analyzed at three levels. […] Cyclic AMP is quantified by RIA according to the manufacturer's recommendations (NEN).

Amino acid sequences for entries named in this document (tags omitted). Residues count along the entry.
UniProt P16473, 21-764: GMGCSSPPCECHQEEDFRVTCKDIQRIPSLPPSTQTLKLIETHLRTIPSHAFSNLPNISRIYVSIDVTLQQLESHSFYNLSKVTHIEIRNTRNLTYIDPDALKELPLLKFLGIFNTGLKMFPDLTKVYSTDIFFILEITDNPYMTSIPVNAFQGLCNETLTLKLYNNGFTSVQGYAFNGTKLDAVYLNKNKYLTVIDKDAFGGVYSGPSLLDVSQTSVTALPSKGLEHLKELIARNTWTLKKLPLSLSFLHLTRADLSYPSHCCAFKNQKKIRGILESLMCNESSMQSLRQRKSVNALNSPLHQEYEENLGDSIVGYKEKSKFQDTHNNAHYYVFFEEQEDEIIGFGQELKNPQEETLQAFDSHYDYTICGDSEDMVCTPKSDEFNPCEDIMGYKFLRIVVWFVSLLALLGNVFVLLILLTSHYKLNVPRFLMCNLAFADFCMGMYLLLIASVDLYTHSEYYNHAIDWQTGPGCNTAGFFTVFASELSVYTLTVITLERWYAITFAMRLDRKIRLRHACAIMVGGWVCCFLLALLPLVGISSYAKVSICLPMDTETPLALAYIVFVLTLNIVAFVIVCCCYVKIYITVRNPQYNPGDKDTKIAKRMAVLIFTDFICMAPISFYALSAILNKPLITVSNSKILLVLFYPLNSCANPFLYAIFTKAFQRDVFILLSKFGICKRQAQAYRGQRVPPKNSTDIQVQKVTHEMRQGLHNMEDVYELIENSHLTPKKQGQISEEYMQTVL

[2] = tested on: ovariectomized (OVX) rats; test: Treatment of osteopenia in ovariectomized rats with Thyrogen (Example 2A); type: in vivo, Sprague-Dawley female rats
Procedure: Seventy two 4 months old Sprague-Dawley female rats, weighting approximately 300 g were used in this study. The rats were kept in standard conditions (24° C. and 12 h/12 h light-dark cycle) in 20×32×20 cm cages during experiment. All animals had allowed free access to water and pelleted commercial diet (Harlan Teklad) containing 1,00% calcium, 0,65% phosphorus and 2,40 KlU of Vitamin D3 per kilogram.
Twelve animals were sham operated, while sixty were ovariectomized (OVX) bilaterally by abdominal approach. Treatment started immediately after ovariectomy as follows: (1) SHAM; (2) OVX+vehicle daily; (3) OVX+0.7 μg thyrotropin daily; (4) OVX+7 μg thyrotropin; (5) OVX+70 μg thyrotropin daily; (6) OVX+17β-estradiol 3 times a week. Animals were treated for 8 weeks (before DEXA analysis). Thyrogen® used in this study had specific activity of 7 lU/mg.
Animals were scanned at the beginning of therapy and than every two weeks during eight weeks of therapy using dual energy absorptiometry (DXA, HOLOGIC QDR-4000) equipped with Small Animal software. Prior to scan animals were anaesthetized with Thiopental (Nycomed).
Total body scans were performed and bone mineral density (BMD), bone mineral content (BMC) of lumbar vertebrae, of hind limbs, total body, and total body with head excluded were determined.
For urine collection animals were placed in metabolic cages and deprived of food for an overnight period of 18 hours. Blood was taken from orbital plexus. Blood and urine was collected at the beginning of therapy and than every two weeks during eight weeks of therapy.
Sacrifice started 8 weeks after the beginning of therapy in ether anesthesia. Bones were collected for histology.
After sacrifice, femora, tibiae and lumbar vertebrae were harvested and scanned, and BMD and BMC of whole bone and its parts were measured

[3] = tested on: postmenopausal women; test: Prospective clinical trial for treatment of osteoporosis (Example 4); type: in vivo, human; settings: expected
Text: This Example describes a prospective clinical trial for treatment of osteoporosis with a TSHR agonist in humans. […] A TSHR agonist, e.g., thyrotropin or its analogues will be administered (e.g., daily, weekly, or biweekly) systemically (e.g., intravenous, subcutaneous, intramuscular, oral, or transdermal routes). Subjects will receive have Dose I (low) or Dose II (high) of the TSHR antagonist or placebo, which will be made available systemically.
Vertebral radiographs at base line and by the end of the study (median duration of observation, 24 months) will be performed. Serial measurements of bone mass by dual-energy x-ray absorptiometry (BMD) at 6 months intervals will be performed. Biochemical markers for bone formation and bone resorption will be determined in blood and urine at 3-6 months intervals. The subjects will be monitored for subsequent fractures (both vertebral and non-vertebral), if any, during the completion of the study.
Data will be analyzed for all women with at least one follow-up visit after enrollment. The rates of side effects and the proportions of women with fractures in the three study groups will be compared with the use of Pearson's chi-square test. All laboratory data and bone mineral measurements will be evaluated by analysis of variance, with the inclusion of terms for the treatment assignment and country. The statistical tests will be two-sided.

[4] = target: T1, TSH receptor (Homo sapiens, UniProt P16473); test: Cell-based TSH potency assay (CHO cell line with TSH receptor and cAMP-responsive luciferase reporter)
T1 construct: host or cells: CHO
Procedure: The biological activity of thyrotropin alfa is determined by a cell-based assay. In this assay, cells expressing a functional thyrotropin receptor and a cAMP-responsive element coupled to a heterologous reporter gene, such as, for example, luciferase, are utilized. The measurement of the reported gene expression provides an indication of thyrotropin activity. The specific activity of thyrotropin alfa is determined relative to a reference material that is calibrated against the World Health Organization (WHO) human pituitary derived thyrotropin reference standard NIBSC 84/703 using an in vitro assay that measures the amount of cAMP produced by a bovine thyroid microsome preparation in response to thyrotropin alfa. The specific activity of thyrotropin alfa is typically in the range of 4-12 lU/mg as determined by a cell-based assay. […]
Cell-based TSH potency assay—Cells are seeded at 30 000 cells/well in growth medium in a 96-well tissue culture plate (Costar), excluding outside wells, to which medium is added. […] Intracellular luciferase activity is determined using the Luciferase Assay Reagent Kit (Promega, Madison, Wis., U.S.A.) according to the manufacturer's recommendations. Luminescence was measured on a Wallac Microlumat Plus LB 96 V luminometer.

[5] = 0.7 and 7 μg, compared to OVX animals, after 8 weeks
[6] = thyrotropin treated groups vs OVX animals

| Substance | nominal specific activity assigned to reference material [1] [lU/mg] | BMD of hind limbs (including hip), in vivo ([2]; 0.7 μg/rat daily, weeks 6 and 8, compared to OVX) | BMD of hind limbs, statistical significance ([2]; 0.7 μg/rat, 6 weeks) | action on bone remodeling at higher doses ([2]; 70 μg/rat) | BMD of proximal femur relative to sham, ex vivo DEXA ([2]; 0.7 and 7 μg) | BMD of distal femur, ex vivo DEXA [2, 5] | BMD of proximal femur, ex vivo DEXA [2, 5] | vertebrae BMD, in vivo ([2]; 6 weeks) | body weight ([2]; between experimental groups) | side-effects ([2]; rat, in vivo) | loss of bone following estrogen deficiency ([2]; systemic administration to ovariectomized rats immediately following surgery) | BMD of lumbar spine, ex vivo DEXA [2, 6] | BMD of tibia, ex vivo DEXA [2, 6] | risk of vertebral and non-vertebral fractures [3] | tolerability [3] | vertebral, femoral, and total-body bone mineral density [3] | specific activity ([4]; cell-based assay, relative to reference calibrated against WHO NIBSC 84/703) | specific activity of Thyrogen used in this study ([4]; material used in Example 2A, assay not stated at place) [lU/mg] |
| --- | --- | --- | --- | --- | --- | --- | --- | --- | --- | --- | --- | --- | --- | --- | --- | --- | --- | --- |
| rhTSH: rhTSH reference material of the cell-based TSH potency assay, tested against the WHO human TSH reference standard | 5.3 |  |  |  |  |  |  |  |  |  |  |  |  |  |  |  |  |  |
| thyrotropin alfa [Thyrogen®] |  | increased BMD | statistically significant level | more resorptive than anabolic | reached sham values | statistically significant increase | statistically significant increase | influence vertebrae BMD positively | no significant differences | no observed side-effects | effective in slowing the loss of bone | a trend but no statistical differences | a trend but no statistical differences | decrease | well tolerated | increase | 4-12 lU/mg | 7 |
